From PubChem BioAssay AID1626 (SRMLSC, 2009)

Test system: M. tuberculosis H37Rv growth inhibition
Test: M. tuberculosis H37Rv growth inhibitors, H37Rv strain (AID 1626)
Conditions: for IC90: measured here: IC90 against H37Rv

| SMILES | IC50 [µM] | IC90 [µM] |
| --- | --- | --- |
| C1CCC(C(CC2CCCCN2)C2CCCCC2)CC1 (configuration not stated) | 6.3 | 10.4 |
| Cc1cccc(CN2CCN(C(c3ccccc3)c3ccc(Cl)cc3)CC2)c1 (configuration not stated) | 16.3 | 20.5 |
| O=c1[nH]c2ccccc2n1C1CCN(CCCC(c2ccc(F)cc2)c2ccc(F)cc2)CC1 | 2.17 | 3.78 |
| O=C(Nc1ccc(Cl)cn1)c1ccc([N+](=O)[O-])o1 | 6.23 | 7.18 |
| Cc1[nH]n(-c2ccccc2)c(=O)c1C=Nc1ccc(S(=O)(=O)Nc2nccs2)cc1 | 5.9 | > 100 |
| Cc1cccc(NC(=O)c2ccc([N+](=O)[O-])o2)c1 | 5.65 | 6.16 |
